The test relates to MNU-induced retinal apoptosis (ONL). Put plainly: N-methyl-nitrosourea (MNU)-induced retinal apoptosis, TUNEL. Format: in vivo, C57BL/6J mice. The note with it: 1.4 µg XIAP (± 0.4 µg Nuc1) intravitreal 4 h before 50 mg/kg MNU i.p., eyes harvested after 24 h.

In the case of “XIAP: recombinant human X-linked inhibitor of apoptosis protein”, the “reduction in number of TUNEL-positive cells relative to MNU (untreated MNU-injected mice)” value came out at 2.2%.

Values taken from paper PMC11262537, “Cell-Penetrating Chaperone Nuc1 for Small- and Large-Molecule Delivery Into Retinal Cells and Tissues” (Investigative Ophthalmology & Visual Science, 2024).
